Laboratory results reported in PubChem BioAssay AID2717 (Broad Institute, 2010).
The list shows a part of the results, in another mix than the full data. Some structures show a salt or complex split into parts, the way the source records it. The source made the active and inactive calls. Rule as the data show it: active = inhibition above about 75%; inconclusive = no clear call, values can overlap the other calls; inactive = below that; tested in HMLE shEcad cells.

Test: cancer stem cell viability inhibitors, primary screen, luminescence (AID 2717)
Details: cancer stem cell-like cells viability, at 7.5 µM, hits give high values

Row | SMILES | inhibition
1 | Nc1ccc2c(ccc3cccnc32)n1.O=[N+]([O-])c1cc([N+](=O)[O-])c(O)c([N+](=O)[O-])c1 | inactive: -8.58%
2 | CP(=O)(OC12CC3CC(CC(C3)C1)C2)OC12CC3CC(CC(C3)C1)C2 | inactive: 26.1%
3 | CCOC(=O)c1ccc(NP(C)(=O)Oc2ccc(Cl)cc2)cc1 (stereo not given) | inactive: -1.18%
4 | O=C(Nc1cc([As](=O)(O)O)ccc1O)c1ccccc1 | inactive: -12.2%
5 | CC(C)(C)C(=O)NC(Sc1ccncn1)C(Cl)(Cl)Cl (stereo not given) | inactive: -15.6%
6 | O=C(O)CNc1ccc([As](=O)(O)O)cc1 | inactive: -12.9%
7 | O=[N+]([O-])c1cccc(NC2=NCC(CBr)S2)c1 (stereo not given) | inactive: -10.5%
8 | COc1ccc(OP(C)(=O)Nc2ccc(Br)cc2)cc1 (stereo not given) | inactive: 14.3%
9 | COc1ccc(C2=NCC(CBr)S2)cc1 (stereo not given) | inactive: 2.52%
10 | CP(=O)(Oc1ccccc1)N1CCOC1=O (stereo not given) | inactive: -6.67%
11 | CCc1nc2c(n1)c1c(non1O)c1c2no[n+]1[O-] | inactive: 62.6%
12 | O=[N+]([O-])c1cc([N+](=O)[O-])c(CCNc2ccccc2)c([N+](=O)[O-])c1 | inactive: 17.6%
13 | O=[N+]([O-])c1cccc2n[nH]nc12 | inactive: -3.9%
14 | CC(=O)N1C2C3N(C(C)=O)C1C1N(C(C)=O)C(C(N1C(C)=O)N3C(C)=O)N2C(C)=O | inactive: -4.67%
15 | COc1ccccc1OP(C)(=O)Nc1c(C)n(C)n(-c2ccccc2)c1=O (stereo not given) | inactive: -6.02%
16 | O=C(OCCCN1CCCC1)C(O)(c1ccccc1)C1CCCCC1 (stereo not given) | inactive: 2.07%
17 | CCN(/C(=N/P(=O)(N1CCOCC1)N1CCOCC1)N1CCOCC1)c1ccc(OC)cc1 | inactive: -15.6%
18 | CP(=O)(Nc1ccc(Cl)cc1)Oc1ccc(F)cc1 (stereo not given) | inactive: -2.17%
19 | COc1ccccc1OP(C)(=O)Nc1ccccc1Br (stereo not given) | inactive: 13.9%
20 | Nc1ccc([As](=O)(O)c2ccc(N)cc2)cc1 | inactive: -2.82%
21 | C[N+]1=C2C=CC=CC=C2SC12C([N+](=O)[O-])=CC([N+](=O)[O-])=C[C-]2[N+](=O)[O-] (stereo not given) | inactive: 44.5%
22 | CC1CCN(C(=O)Oc2c(Cl)cc(Cl)c3cccnc23)CC1 | inactive: 3.27%
23 | CN(C)C(=O)c1c([N+](=O)[O-])cc([N+](=O)[O-])cc1[N+](=O)[O-] | inactive: 2.25%
24 | CC(C)=N/N=C(\N)N[N+](=O)[O-] | inactive: -0.9%
25 | CN(C)C(=O)OCCc1n(C)cc[n+]1C | inactive: -4.92%

Row | SMILES | inhibition
26 | CN(C(=O)Cc1ccc(Cl)c(Cl)c1)[C@H]1CCCC[C@H]1N1CCCC1 | inactive: -0.887%
27 | COc1ccccc1OP(C)(=O)Nc1ccc(Br)cc1 (stereo not given) | inactive: -10.9%
28 | Cc1ccc(N/C(=N/P(=O)(N2CCOCC2)N2CCOCC2)N2CCOCC2)cc1 | inactive: -5.93%
29 | NC(=O)c1cc([N+](=O)[O-])cc([N+](=O)[O-])c1N | inactive: 3.89%
30 | CN1CCCC(OC(=O)C(c2ccccc2)c2ccccc2)C1 (stereo not given) | inactive: -21.8%
31 | Clc1ccc(Cl)c(NC2=NCC(CBr)S2)c1 (stereo not given) | inactive: -5.46%
32 | COc1ccccc1OP(=O)(Nc1ccc(C)cn1)Oc1ccccc1OC | inactive: -11.5%
33 | COc1ccc(OP(C)(=O)Nc2ccccn2)cc1 (stereo not given) | inactive: -15.1%
34 | Cc1ccc(OP(=O)(Nc2nccs2)Oc2ccc(C)cc2)cc1 | inactive: -11.2%
35 | Oc1ccccc1CNc1ccccn1 | inactive: -8.2%
36 | O=C(NC(Sc1ccncn1)C(Cl)(Cl)Cl)c1ccccc1 (stereo not given) | inactive: -8.71%
37 | Cc1c2non([O-])c-2c(C)[n+](=O)[n+]1[O-] | inactive: 2.22%
38 | Cc1c(NP(C)(=O)Oc2ccc(C(C)C)cc2)c(=O)n(-c2ccccc2)n1C (stereo not given) | inactive: -14.4%
39 | Nc1cc(N)c2nonc2c1[N+](=O)[O-] | inactive: -5.13%
40 | CC(C)CC(=O)NC(Sc1ccc(Cl)cc1)C(Cl)(Cl)Cl (stereo not given) | inactive: -11.6%
41 | O=[N+]([O-])c1cc([N+](=O)[O-])c(Nc2ccccn2)c([N+](=O)[O-])c1 | inactive: 34.7%
42 | CCc1ccc(OP(C)(=O)O)cc1 | inactive: -1.64%
43 | CP(=O)(Nc1ccccn1)Oc1ccccc1 (stereo not given) | inactive: -3.11%
44 | COc1ccccc1OP(C)(=O)Nc1ccc(C)cc1C (stereo not given) | inactive: -8.17%
45 | O=P(Nc1nc2ccc(Cl)cc2s1)(c1ccccc1)c1ccccc1 | inactive: 43.3%
46 | Cc1cc(C)cc(OP(C)(=O)Nc2cccc(C(F)(F)F)c2)c1 (stereo not given) | inactive: -10.7%
47 | CC(=O)Nc1ccc([As](=O)(O)O)cc1 | inactive: -5.44%
48 | O=C(O)c1ccccc1[As](=O)(O)O | inactive: -1.17%
49 | COc1ccc(OP(C)(=O)Nc2ccccc2Br)cc1 (stereo not given) | inactive: -4.41%
50 | Cc1cc(SC(NC(=O)c2ccc(F)cc2)C(Cl)(Cl)Cl)ncn1 (stereo not given) | inactive: 22.3%

Row | SMILES | inhibition
51 | CCOP(=O)(Nc1ccccc1)OCC | inactive: -17.3%
52 | COc1ccccc1OP(C)(=O)Nc1ccc(C)c(C)c1 (stereo not given) | inactive: -12.6%
53 | Cc1ccc(NP(=O)(Oc2ccccc2F)Oc2ccccc2F)nc1 | inactive: -8.76%
54 | CN(C(=O)Cc1ccc(Cl)c(Cl)c1)[C@H]1CCCC[C@@H]1N1CCCC1 | inactive: -11.5%
55 | O=[N+]([O-])c1cc([N+](=O)[O-])c(CCN2CCOCC2)c([N+](=O)[O-])c1 | inactive: -0.576%
56 | Nc1cccc2ccc([As](=O)(O)O)cc12 | inactive: -3.78%
57 | CP(=O)(Nc1ccc(Cl)cc1Cl)Oc1ccccc1 (stereo not given) | inactive: -4.13%
58 | CP(=O)(OCCOc1ccccc1)OCCOc1ccccc1 | inactive: -8.33%
59 | CCN(N=Nc1nonc1N)c1nonc1N | inactive: -4.16%
60 | c1ccc(-c2nn[nH]n2)c(-c2nn[nH]n2)c1 | inactive: -0.0447%
61 | Cc1ccc(NP(=O)(Oc2cccc(C)c2)Oc2cccc(C)c2)nc1 | inactive: 0.157%
62 | CCOC(=O)NC(Sc1ccccc1)C(Cl)(Cl)Cl (stereo not given) | inactive: -5.87%
63 | CCNC(=S)/N=C(\N)N[N+](=O)[O-] | inactive: 5.07%
64 | O=C(NC1CCS(=O)(=O)C1)NP(=S)(Oc1ccccc1)Oc1ccccc1 (stereo not given) | inactive: 10.6%
65 | COc1ccc(OP(C)(=O)Nc2ccc(SC(F)(F)F)cc2)cc1 (stereo not given) | inactive: 3.16%
66 | CCOC(=O)c1ccc(NP(C)(=O)Oc2ccc(F)cc2)cc1 (stereo not given) | inactive: 6.19%
67 | O=C(OC1CN2CCC1CC2)c1ccccc1 (stereo not given) | inactive: -12.3%
68 | CCN(CC)CCCOC(=O)C(O)(c1ccccc1)C1CCCCC1 (stereo not given) | inactive: 3.28%
69 | CCC(=O)N1C2C3N(C(=O)CC)C1C1N(C(=O)CC)C(C(N1C(=O)CC)N3C(=O)CC)N2C(=O)CC | inactive: -7.84%
70 | COC(=O)c1cc2c(s1)N=C(c1ccccc1)N(C)P2(=O)N1CCOCC1 (stereo not given) | inactive: -2.77%
71 | CC(=O)NC(SC(=S)N(CC(C)C)CC(C)C)C(Cl)(Cl)Cl (stereo not given) | inactive: 23.7%
72 | Cc1ccc(OP(=O)(Nc2ccccn2)Oc2ccc(C)cc2)cc1 | inactive: 0.896%
73 | CC(NC(=O)COC(=O)C(O)(c1ccccc1)c1ccccc1)c1ccccc1 (stereo not given) | inactive: -0.416%
74 | Cc1ccccc1OP(=O)(Nc1ccccn1)Oc1ccccc1C | inactive: 1.57%
75 | CCCCCOc1ccc(NP(C)(=O)Oc2ccc(Cl)cc2Cl)cc1 (stereo not given) | inactive: 37.3%

Row | SMILES | inhibition
76 | O=[N+]([O-])c1cc([N+](=O)[O-])c(OC2CCCCC2O)c([N+](=O)[O-])c1 (stereo not given) | inactive: -16.4%
77 | CN(C)C(=O)Oc1noc2ccccc12 | inactive: -5.73%
78 | CP(=O)(Nc1ccccc1)Oc1ccc(F)cc1 (stereo not given) | inactive: -3.09%
79 | O=P1(Nc2nc3ccc(Cl)cc3s2)COc2ccccc2O1 (stereo not given) | inactive: 8.99%
80 | CCOc1ccc(C2=NCC(CBr)S2)cc1 (stereo not given) | inactive: -3.25%
81 | CC(C)(C)C(=O)NC(Sc1ccccc1)C(Cl)(Cl)Cl (stereo not given) | inactive: 5.63%
82 | CP(=O)(Nc1ccccc1F)Oc1ccccc1 (stereo not given) | inactive: 1.09%
83 | C[C@H]1OP(=O)(Oc2ccccc2)C[C@@H]2O[C@@H]21 (stereo not given in full) | inactive: 3.47%
84 | C[C@@H]1C=CCP(=O)(Oc2ccccc2)O1 (stereo not given in full) | inactive: 3.67%
85 | CC(=O)c1ccc(N2CC2c2ccncc2)cc1 (stereo not given) | inactive: -9.07%
86 | O=C(OC1CN2CCC1CC2)c1ccc([N+](=O)[O-])cc1 (stereo not given) | inactive: -2.2%
87 | CC(=O)Nc1ccc([As](=O)(O)O)c(O)c1 | inactive: -11.5%
88 | COc1ccc2c(c1O)-c1c(O)c(OC)cc3c1[C@H](C2)[N+](C)(C)CC3.O=[N+]([O-])c1cc([N+](=O)[O-])c([O-])c([N+](=O)[O-])c1[O-] | inactive: -16.8%
89 | CC(C)C(=O)NC(Sc1ccccc1)C(Cl)(Cl)Cl (stereo not given) | inactive: -12.2%
90 | O=P(Nc1nccs1)(c1ccccc1)c1ccccc1 | inactive: 5.07%
91 | CP(=O)(Nc1ccc(SC(F)(F)F)cc1)Oc1ccc(F)cc1 (stereo not given) | inactive: 2.14%
92 | c1nnnn1CCn1cnnn1 | inactive: 2.06%
93 | CCOP(C)(=S)SCC(=O)NC(C)(CC)C(=O)O (stereo not given) | inactive: 10.3%
94 | CP(=O)(Nc1ccc2c(c1)OCCO2)Oc1ccccc1 (stereo not given) | inactive: -2.21%
95 | Cc1ccccc1NP(C)(=O)Nc1ccccc1C | inactive: -11.1%
96 | O=P(Nc1ccccn1)(c1ccc(Br)cc1)c1ccc(Br)cc1 | inactive: -3.53%
97 | CN(C)C1(CNC(=O)c2ccc(Cl)c(S(N)(=O)=O)c2)CCCCC1 | inactive: -1.17%
98 | COc1ccc(OP(C)(=O)Nc2cccc(Br)c2)cc1 (stereo not given) | inactive: -7.89%
99 | COc1ccc(NP(C)(=O)Oc2ccccc2OC)cc1 (stereo not given) | inactive: -13.2%
100 | CN(C)CCOC(=O)C(O)(c1ccccc1)C1CCCCC1 (stereo not given) | inactive: 3.13%
